Data taken from PubChem BioAssay AID778 (Sanford-Burnham Center for Chemical Genomics, 2007).
Only a part is listed here, and it is no random draw. Activity calls are given as the source filed them.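 Rule for the calls: active = CYP2C19 inhibition above a set limit at 5 µM in the primary screen (cut at about 50% in these data); inactive = the rest.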

Sequences of proteins named here, by UniProt entry; tags and fusion partners are left off.
UniProt P33261, whole entry: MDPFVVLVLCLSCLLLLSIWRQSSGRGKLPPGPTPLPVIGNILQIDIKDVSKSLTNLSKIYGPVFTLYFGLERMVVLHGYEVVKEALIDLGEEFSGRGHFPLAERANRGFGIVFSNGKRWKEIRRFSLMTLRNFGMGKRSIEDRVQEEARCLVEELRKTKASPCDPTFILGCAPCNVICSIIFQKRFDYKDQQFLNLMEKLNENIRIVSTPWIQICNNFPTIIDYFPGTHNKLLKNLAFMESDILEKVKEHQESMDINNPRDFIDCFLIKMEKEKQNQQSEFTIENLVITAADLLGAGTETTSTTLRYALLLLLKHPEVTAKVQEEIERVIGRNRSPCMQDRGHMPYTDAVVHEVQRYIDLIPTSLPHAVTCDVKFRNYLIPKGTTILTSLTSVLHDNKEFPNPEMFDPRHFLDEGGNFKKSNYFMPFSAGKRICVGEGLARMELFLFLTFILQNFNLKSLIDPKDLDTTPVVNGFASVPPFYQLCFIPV

target: Cytochrome P450 2C19 (Homo sapiens) (UniProt P33261); experiment: blockers of cytochrome P450 2C19 activity – biochemical, luminescence, ADME assay, primary screen (AID 778); settings: CYP2C19 Supersomes, luciferin-H EGE luminescence, 30 min; at 5 µM; active compounds read high;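 note: plate controls were negative control wells for no effect and 2.5 mM tranylcypromine positive control for full effect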

| Compound | inhibition |
| --- | --- |
| Cc1ccc(NP(C)(=O)Oc2ccccc2)c(C)c1 (stereo not given) | active: 64.3% |
| COc1ccccc1OP(C)(=O)Nc1ccc(C)cc1 (stereo not given) | active: 82.2% |
| COc1ccc(OP(C)(=O)Nc2cccc(F)c2)cc1 (stereo not given) | active: 95.2% |
| CP(=S)(Nn1cnnc1)Oc1ccccc1 (stereo not given) | inactive: 12.1% |
| CP(=O)(NC(=O)Nc1ccccc1)Oc1ccccc1 (stereo not given) | inactive: -10.4% |
| CCOP(C)(=S)SCC(=O)NC(C)C(=O)O (stereo not given) | inactive: 24.6% |
| CP(=O)(Nc1ccccn1)Oc1ccc(Cl)cc1 (stereo not given) | inactive: 44.4% |
| Cc1nc2ccc3ccccc3c2s1.O=[N+]([O-])c1cc([N+](=O)[O-])c(O)c([N+](=O)[O-])c1 | inactive: 7.8% |
| Cc1cc(C)cc(OP(C)(=O)Nc2ccc(C)cc2C)c1 (stereo not given) | active: 88.3% |
| Cc1cc(C)cc(OP(C)(=O)Nc2ccccn2)c1 (stereo not given) | active: 50.1% |
| Cc1ccc(C)c(NP(C)(=O)Oc2ccccc2)c1 (stereo not given) | inactive: 23.8% |
| CP(=O)(Nc1ccccc1F)Oc1ccccc1 (stereo not given) | inactive: 24.5% |
| CP(=O)(Nc1ccccc1)Oc1ccc(F)cc1 (stereo not given) | inactive: 21.5% |
| COc1ccc(OP(C)(=O)Nc2cccc(Br)c2)cc1 (stereo not given) | active: 73.5% |
| CN(C)CCOC(=O)C(O)(c1ccccc1)C1CCCCC1 (stereo not given) | active: 50.3% |
| CCOP(C)(=S)SCC(=O)NC(C)(CC)C(=O)O (stereo not given) | inactive: -8.7% |
| Cc1ccccc1NP(C)(=O)Nc1ccccc1C | active: 83.6% |
| CCN(CC)CC(O)COC(=O)C(O)(c1ccccc1)C1CCCCC1 (stereo not given) | inactive: 2.1% |
| CP(=O)(Oc1ccccc1)N1CCOC1=O (stereo not given) | inactive: 4.2% |
| COc1ccccc1OP(C)(=O)Nc1c(C)n(C)n(-c2ccccc2)c1=O (stereo not given) | inactive: 2.8% |
| CC(C)(C)c1ccc(OP(C)(=O)O)cc1 | inactive: -9% |
| CP(=O)(OC12CC3CC(CC(C3)C1)C2)OC12CC3CC(CC(C3)C1)C2 | inactive: -20.2% |
| COc1ccccc1OP(C)(=O)Nc1ccc(C)c(C)c1 (stereo not given) | active: 88.8% |
| Cc1nc2ccc3ccccc3c2o1.O=[N+]([O-])c1cc([N+](=O)[O-])c(O)c([N+](=O)[O-])c1 | inactive: -10.2% |
| CN(C)CCOC(=O)C(O)(c1ccccc1)C1CCCC1 (stereo not given) | inactive: 12.2% |
| COc1ccc(OP(C)(=O)Nc2ccccn2)cc1 (stereo not given) | inactive: 45.5% |
| Cc1c(NP(C)(=O)Oc2ccc(C(C)C)cc2)c(=O)n(-c2ccccc2)n1C (stereo not given) | inactive: 8.6% |
| CCc1ccc(OP(C)(=O)O)cc1 | inactive: 3.1% |
| COc1ccccc1OP(C)(=O)Nc1ccc(C)cc1C (stereo not given) | inactive: 30.3% |
| CP(=O)(Nc1ccccn1)Oc1ccccc1 (stereo not given) | inactive: 6.4% |
